# Compound activity deposited in PubChem BioAssay by National Center for Advancing Translational Sciences (NCATS).
# GLP1R ag: GLP-1 receptor (human) agonism; HEK293 GLP-1R CRE-luciferase, luminescence, 4-6 h; cells express a hypersensitive GLP-1R form; Potency, µM (series often up to 45.6 µM), without a hit: top-dose activation, most hits filed as activators; 0.007% of 380,000 active; further: potency means the concentration at half of the fitted maximal effect; % of control where 0% means no effect
# GLP1R inv ag: GLP-1 receptor (human) inverse agonism. AID 624417. HEK293 GLP-1R CRE-luciferase, luminescence, 24 h; GLP-1R form is constitutively active. P43220. Potency, µM (top dose mostly 38.3 µM), inactives show at the top dose activity change, negative = inhibition, actives largely listed as inhibitors. 1.6% of 410,000 active; further: potency means the concentration at half of the fitted maximal effect; on the % scale 0 is the no-effect control and ±100 the full control effect; nearly all actives have a fitted effect of over 55% in size
#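 qHTS in 1536-well format: reporter HEK293 cells expressing constitutive GLP-1R activity in DMEM + 10% Nu serum, 24 hr with compounds at 37 deg C, luminescence read after 12 min with detection reagent.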
# miR-21 reporter: raises the signal of a miR-21 reporter | Potency, µM (doses to about 38.3 µM), for inactives: top-dose reporter change, positive = more light | HeLa miR-21 FLuc reporter, luciferase, 48 h | AID 2288 | 340,000 tested, under 10 active; active = well fitted rising curve with a large enough effect; inconclusive = small, poorly fitted or top-dose-only effect; inactive = no such curve, though single readings can be large or run the other way;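 also: % of control where 0% means no effect; miR-21 action dims this reporter so a rising signal means less miR-21 action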
#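 HeLa miR-21-FLuc reporter line, endogenous miR-21; 2000 cells/well in DMEM/10% FBS; compound titration up to ~40uM final, 48 h, 37 degree Celsius; luciferase detection reagent, 15 min lysis, CCD luminescence.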
# Pin1 inhibitor: human Pin1 inhibition. Q13526. Pin1 FP peptide displacement, HiFluor488, 10 min. Potency, µM (top dose mostly 115 µM), inactives show at the top dose activity, negative = inhibition, usual class: inhibitors. 0.009% of 390,000 active. AID 504891; active means well fitted inhibition curve with a large enough effect in the polarisation, with a control signal flat, not every such curve was filed as active; inconclusive means small, poorly fitted or top-dose-only effect, or effect the other way, or a change in a side signal; inactive means no such curve, though single readings can be large or run the other way; the % refers to the polarisation; further: potency means the concentration at half of the fitted maximal effect; on the % scale 0 is the no-effect control and ±100 the full control effect
# PTHR1 agonist: activates the human parathyroid hormone receptor PTHR1; Q03431; HEK293 GP2 PTHR1 cells, GloSensor cAMP luminescence, 1 h; Potency, µM (highest dose often 115 µM), inactives show top-dose activation, usual class: activators; 0.075% of 410,000 active; AID 743266; further: potency means the concentration at half of the fitted maximal effect; nearly all actives have a fitted effect of over 55% in size
#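 HEK-293-derived GP2 cells expressing PTHR1 and a GloSensor cAMP reporter, 3,000/well, plated overnight, given luciferin plus IBMX (each 0.5 mM as added) for 1 h at 37 °C, then compound for 1 h at 37 °C. Luminescence was read after 15 min at room temperature.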
# GLP1R cytotox: cytotoxic in the GLP-1 receptor inverse agonist counter-screen | 0.13% of 410,000 active | Potency, µM (series often up to 38.3 µM), for the others: at the top dose activity change, negative = inhibition, most hits filed as inhibitors | HEK293 cAMP-luciferase reporter cells, luminescence, 24 h | AID 624418;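 further: loss of luciferase light is scored as toxicity; potency means the concentration at half of the fitted maximal effect; on the % scale 0 is the no-effect control and ±100 the full control effect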
#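 MLSMR compounds, 24 hr on cells at 37 deg C/5% CO2; luminescence after luciferase reagent (12 min RT). Inhibition counted as the undesired cytotoxic outcome.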
# Starred values were filed as active, the others as inactive; i = inactive; ? = inconclusive; · = no result; [ ] = dose if it differs, or a comment. Only some compounds are listed: those with a hit (about 1.7% of all), similar ones and a draw of the others. Unless noted, the call rests on the fitted dose curve; in most records, active means well fitted curve in the direction sought with a large enough effect; inconclusive means small, poorly fitted or top-dose-only effect, or another doubt; inactive means no such curve, though single readings can be large; an effect the other way counts as inactive or inconclusive.
# Preview, 4 compounds:
no. | Compound | GLP1R ag | GLP1R inv ag | miR-21 reporter
1 | CC(=O)Nc1nc(-c2ccc3c(c2)CCN3C(=O)C2CC2)c(C)s1 | 17% | 0.63µM* | ?
2 | COc1ccc(CNC(=O)C(C)N2CCN(S(=O)(=O)c3ccccc3F)CC2)cc1 (stereo not given) | 9% | -5% | ·
3 | CCCc1ccc(S(=O)(=O)N2CCN(C(C)C(=O)NCc3ccc(OC)cc3)CC2)cc1 (stereo not given) | -2% | 10µM* | ·
4 | COc1ccc(C2Nc3ccc(NC(C)=O)cc3C(=O)N2Cc2cccc(Cl)c2)cc1COc1ccc(NC(C)=O)cc1 (stereo not given) | · | · | ·

no. | Pin1 inhibitor | PTHR1 agonist | GLP1R cytotox
1 | 10% | -24% | 16%
2 | -4% | i | -15%
3 | ? | -63% | -6%
4 | 31% | · | ·

# Main list, previewed entries included:
no. | Compound | GLP1R ag | GLP1R inv ag | miR-21 reporter
1 | CC(=O)Nc1nc(-c2ccc3c(c2)CCN3C(=O)C2CC2)c(C)s1 | 17% | 0.63µM* | ?
2 | COc1ccc(CNC(=O)C(C)N2CCN(S(=O)(=O)c3ccccc3F)CC2)cc1 (stereo not given) | 9% | -5% | ·
3 | CCCc1ccc(S(=O)(=O)N2CCN(C(C)C(=O)NCc3ccc(OC)cc3)CC2)cc1 (stereo not given) | -2% | 10µM* | ·
4 | COc1ccc(C2Nc3ccc(NC(C)=O)cc3C(=O)N2Cc2cccc(Cl)c2)cc1COc1ccc(NC(C)=O)cc1 (stereo not given) | · | · | ·
5 | O=C(CCCCCNC(=O)N1CCn2c1nc1ccccc12)NCc1ccc(Cl)cc1 | 11% | ? | -1%
6 | O=C(CCCCCNC(=O)N1CCn2c1nc1ccccc12)NCc1ccccc1Cl | 13% | 7.1µM* | 0%
7 | CCCN1C(=O)c2ccccc2NC1c1ccc(OC)c(COc2cccc(OC)c2)c1 (stereo not given) | · | · | ·
8 | CC(C)(C)C(c1nc2ccccc2[nH]1)n1c(-c2ccco2)nc2ccccc21 (stereo not given) | · | 26% | ·
9 | CC(C)(C)C(c1nc2ccccc2[nH]1)n1c(-c2ccsc2)nc2ccccc21 (stereo not given) | · | 10µM* | ·
10 | CSc1ccc(/C=N/N(C)S(=O)(=O)c2ccc(C)cc2)cc1 | 11% | ? | 10%
11 | Cc1ccc(/C=N/N(C)S(=O)(=O)c2ccc(C)cc2)cc1 | 7% | 10µM* | 9%
12 | COc1cccc(CCN2CCC(CNS(=O)(=O)c3cc(-c4cc(C)no4)ccc3OC)CC2)c1 | 5% | ? | 22%

no. | Pin1 inhibitor | PTHR1 agonist | GLP1R cytotox
1 | 10% | -24% | 16%
2 | -4% | i | -15%
3 | ? | -63% | -6%
4 | 31% | · | ·
5 | ? | -13% | -2%
6 | -7% | -9% | -9%
7 | 10% | · | ·
8 | · | 1% | -2%
9 | · | i | ?
10 | -4% | -76% | -4%
11 | ? | -74% | 7%
12 | -7% | -31% | ?

# (continued)
no. | Compound | GLP1R ag | GLP1R inv ag | miR-21 reporter
13 | COc1cccc(CCN2CCC(CNS(=O)(=O)c3cc(-c4cc(C)no4)ccc3C)CC2)c1 | -9% | 4.5µM* | 25%
14 | COc1cccc(Cn2ncc3c4sc(SC)cc4n(C)c3c2=O)c1 | · | · | ·
15 | COc1ccc(CCN2C(=O)N(c3ccc(C)cc3)C(=O)C2CC(=O)Nc2ccc(F)cc2)cc1 (stereo not given) | -2% | 7.9µM* | 19%
16 | COc1ccc(CCN2C(=S)N(C)C(=O)C2CC(=O)Nc2ccc(OC)cc2)cc1 (stereo not given) | 17% | ? | 28%
17 | COc1ccc(NC(=O)CC2C(=O)N(C)C(=S)N2CCc2ccc(F)cc2)cc1 (stereo not given) | 5% | 11µM* | ?
18 | COC(=O)c1ccc(NC(=O)CC2C(=O)N(c3ccc(F)cc3)C(=O)N2Cc2ccc(OC)cc2)cc1 (stereo not given) | · | 9% | 25%
19 | Cc1oc2ccc(O)c(CN3CCCCCC3)c2c1C(=O)Nc1cccc(C(F)(F)F)c1 | · | ? | 28%
20 | Cn1c(=O)n(Cc2ccccc2)c(=O)c2c1nc1n2CCCN1Cc1ccccc1 | -2% | 19% | -6%
21 | Cc1ccccc1Cn1c(=O)c2c(nc3n2CCCN3Cc2ccccc2)n(C)c1=O | 6% | 3.2µM* | ·
22 | IC(I)I | -6% | · | ·
23 | NCCCN(Cc1ccccc1)c1ccc(Br)cn1 | · | · | ·
24 | CCNC(=O)C1CCCc2c1[nH]c1ccc(Cl)cc21 (stereo not given) | 2% | 1%[7.66 µM] | -1%

no. | Pin1 inhibitor | PTHR1 agonist | GLP1R cytotox
13 | 0% | -88% | ?
14 | 4% | · | ·
15 | 12% | -43% | -18%
16 | -5% | -5% | 4%
17 | -8% | -19% | -21%
18 | -2% | i | 2%
19 | 9% | -11% | 2%
20 | -10% | -17% | -12%
21 | 5% | -92%[57.5 µM] | 15%
22 | · | · | ·
23 | 25% | · | ·
24 | 0% | -48% | 0%[7.66 µM]

# The listing continues.
no. | Compound | GLP1R ag | GLP1R inv ag | miR-21 reporter
25 | CCOC(=O)C1CCCc2c1[nH]c1ccc(Cl)cc21 (stereo not given) | 0% | ? | 15%
26 | CCOC(=O)c1ccc2[nH]c3c(c2c1)CCCC3C(=O)OCC (stereo not given) | 20% | 5µM* | -12%
27 | NC(=O)C1CCCCc2c1[nH]c1ccc(Cl)cc21 (stereo not given) | 2% | 13µM* | -1%
28 | CC1CCN(C(=O)C2COc3ccccc3C2)CC1 (stereo not given) | · | -14% | -25%
29 | O=C(Nc1ccc(Cl)cc1)N1CCN(c2ccccc2)CC1 | 1% | ? | -22%
30 | O=C(Nc1ccc(NC(=O)N2CCN(c3ccccc3O)CC2)cc1)N1CCN(c2ccccc2O)CC1 | 10% | 5µM* | 17%
31 | Cc1ccsc1/C=C(\C(=O)c1ccc(OC(C)C)cc1)c1nc2ccccc2o1 | 9% | 4µM* | -5%
32 | Oc1ccc(/C=N/Nc2cc(N3CCOCC3)nc(N3CCOCC3)n2)cc1O | 14% | 25% | -12%
33 | Oc1cccc(/C=N/Nc2cc(N3CCOCC3)nc(N3CCOCC3)n2)c1 | -1% | 3.5µM* | -8%
34 | O=C(Oc1cccc(/C=N/Nc2nc(Nc3ccccc3)nc(N3CCOCC3)n2)c1)c1ccco1 | -4% | 1.8µM* | -16%
35 | COc1cc(/C=N/Nc2nc(N3CCCCC3)nc(N3CCCCC3)n2)ccc1OC(=O)c1ccco1 | · | · | -1%
36 | N#Cc1nc(NCCO)nc(Nc2ccccc2)n1 | · | · | ·

no. | Pin1 inhibitor | PTHR1 agonist | GLP1R cytotox
25 | -8% | i | 1%
26 | -3% | -13%[57.5 µM] | -9%
27 | -9% | -9% | -2%
28 | -13% | -34% | 0%
29 | -1% | i | -8%
30 | -7% | i | -25%
31 | 61% | i | 2%
32 | 15% | i | -13%
33 | 0% | i | 9%
34 | 3% | i | 28%
35 | · | · | ·
36 | 14% | · | ·

# (more compounds)
no. | Compound | GLP1R ag | GLP1R inv ag | miR-21 reporter
37 | O=C(C[n+]1ccc(-c2cc(C(=O)Nc3cccc(C(F)(F)F)c3)c3ccccc3n2)cc1)c1cccc([N+](=O)[O-])c1 | -1% | 11µM* | 15%
38 | Cc1ccc(Cl)cc1NC(=O)CSCc1cnn(-c2ccccc2)c1-n1cccc1 | · | 10µM* | 28%
39 | Cc1ccc(NC(=O)CSCc2cnn(-c3ccccc3)c2-n2cccc2)c(C)c1 | · | ? | ?
40 | CCn1nnc(NC(=S)NC(=O)c2ccc(-c3cccc(Cl)c3)o2)n1 | -1% | -22% | -14%
41 | O=C1CN(C(=O)c2ccc(Br)o2)C(c2ccccc2)c2cc(F)ccc2N1 (stereo not given) | 6% | 7.9µM* | -1%
42 | CCOc1ccc(S(=O)(=O)NC2CC2)cc1 | 2% | 12% | -4%

no. | Pin1 inhibitor | PTHR1 agonist | GLP1R cytotox
37 | 18% | -9% | ?
38 | -2% | i | -11%
39 | ? | -87% | 3%
40 | 0% | i | 5µM*
41 | 11% | i | -27%
42 | -7% | i | 6%
